Measured values: PMC9737972, “Dual LSD1 and HDAC6 Inhibition Induces Doxorubicin Sensitivity in Acute Myeloid Leukemia Cells” (Cancers, 2022)

Key:
[1] = system: THP-1 cells; test: Caspase 3/7 and 7-AAD staining (flow cytometry); details: compound 5 μM 72 h, then co-treatment with doxorubicin 62.5 nM 48 h
[2] = system: THP-1 cells; test: Combination treatment with antileukemic drugs, THP-1 cell viability; format: cell-based; details: compound 5 μM (ricolinostat 1.25 μM) 72 h, then compound + doxorubicin 62.5 nM 48 h
[3] = system: THP-1 cells; test: Reactive oxygen species activation (Muse Oxidative Stress Kit); format: cell-based; details: for ROS in combination with doxorubicin vs doxorubicin alone: compound 5 μM (ricolinostat 1.25 μM) 72 h, then + doxorubicin 62.5 nM 24 h
[4] = system: THP-1 cells; test: γH2AX activation (double strand breaks, flow cytometry); format: cell-based; details: doxorubicin 62.5 nM; for DSB levels, compound on its own or as a pretreatment to doxorubicin: compound 5 μM (ricolinostat 1.25 μM) 72 h
Experimental: The Muse ɣH2A.X Activation Dual Detection Kit (Merck Millipore, Burlington, MA, USA, MCH200101) protocols were followed for double strand break analysis. Treated cells were centrifuged at 300× g for 5 min, and the pellet was resuspended with 1 × Assay Buffer (CS202134) and fixed on ice for 5 min with Fixation Buffer (CS202122) in 1:1 ratio. Fixed cells were centrifuged for 600 g for 5 min and mixed with Permeabilization Buffer (1:2 ratio CS203284) and incubated on ice for 5 min. Then, cells were centrifuged at 600 g and resuspended with 20 × Anti-H2A.X PECy5 (CS208202) and 20 × Anti-phosphate (Ser139) Alexa Fluor 555 (CS208203) antibody mix and incubated for 30 min at room temperature. Stained cells were resuspended with 200 μL of 1 × Assay Buffer and γH2AX activation was analyzed with Muse Cell Analyzer (Merck Millipore).
Figure S25. Flow cytometric analysis of double strand breaks after combination treatments. THP-1
for 6 h. Cells were analysed with Muse Cell Analyzer for H2AX activation. Images represent as the
average from two biological repeats. The inactivated quadrant indicates the cells expressing H2AX
without phosphorylation and the activated quadrant indicates the ɣH2AX phosphorylated cells.

SMILES | cells in the apoptosis/dead quadrant (caspase 3/7 staining), pre-treatment then doxorubicin [1] | cell viability after pre-treatment with compound and co-treatment with doxorubicin [2] | ROS in combination with doxorubicin vs doxorubicin alone [3] | DSB levels, compound on its own or as a pretreatment to doxorubicin [4] | ROS generation, drug alone ([3]; doxorubicin 62.5 nM, 24 h) | formation of DSBs (γH2AX activation), drug alone ([4]; 6 h (methods))
O=C(NO)c1ccc(CN2CCC(CN[C@@H]3C[C@H]3c3ccccc3)CC2)cc1 (relative stereo) [iDual] | over 80% | significant decrease | no further increase | neither |  | 
O=C(O)c1ccc(CN2CCC(CN[C@@H]3C[C@H]3c3ccccc3)CC2)cc1 [GSK2879552, reference compound] |  |  | no further increase | neither |  | 
COc1cccc2c1C(=O)c1c(O)c3c(c(O)c1C2=O)C[C@@](O)(C(=O)CO)C[C@@H]3O[C@H]1C[C@H](N)[C@H](O)[C@H](C)O1 [doxorubicin] |  |  |  |  | ROS generation | up to 40%
O=C(NO)c1ccc(CN2CCC(CNC3(c4ccccc4)CC3)CC2)cc1 [iHDAC6] |  |  | no further increase | mild increase |  | 
O=C(CCCCCCNC(=O)c1cnc(N(c2ccccc2)c2ccccc2)nc1)NO [ricolinostat, reference compound] |  | to a much lesser extent | no further increase | neither |  | 
